Laboratory results: PubChem BioAssay AID686964 (The Scripps Research Institute Molecular Screening Center, 2013)
Only a part is listed here, and it is no random draw. Some salts and complexes are drawn in separate pieces, as the source files them; their charges need not balance. Active and inactive are the calls of the source. Cut-off read from the data, not from the text of the source: active = inhibition above about 13%; inactive = the rest.

Chains of the proteins cited; added tags and fusions are not shown.
UniProt Q9UBB5, whole entry: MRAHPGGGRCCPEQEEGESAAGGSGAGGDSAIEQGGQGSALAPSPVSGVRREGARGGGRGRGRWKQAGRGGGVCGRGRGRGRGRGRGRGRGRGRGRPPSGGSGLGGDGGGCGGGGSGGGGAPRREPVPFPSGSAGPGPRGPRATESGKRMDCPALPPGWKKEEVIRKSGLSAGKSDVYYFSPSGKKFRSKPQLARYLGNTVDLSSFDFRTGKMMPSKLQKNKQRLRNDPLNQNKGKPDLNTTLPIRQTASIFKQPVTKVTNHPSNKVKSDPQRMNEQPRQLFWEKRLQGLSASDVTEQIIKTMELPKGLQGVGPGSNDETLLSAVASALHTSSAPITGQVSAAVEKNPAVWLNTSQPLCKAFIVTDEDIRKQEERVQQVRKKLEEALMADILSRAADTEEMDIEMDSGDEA

Target: Methyl-CpG-binding domain protein 2 (Homo sapiens) (UniProt Q9UBB5)
Experiment: MBD2-DBD methyl-oligonucleotide interaction blockers – biochemical, TR-FRET, DNA-binding domain, human, primary screen (AID 686964)
Details: MBD2 binding to methylated oligonucleotide, at 4.4 µM, hits give high values

Row | Structure (SMILES) | inhibition
1 | COc1ccccc1OP(C)(=O)Nc1ccc(Br)cc1 (stereo not drawn) | inactive: 0.51%
2 | COc1ccc(OP(C)(=O)Nc2ccccn2)cc1 (stereo not drawn) | inactive: -1.46%
3 | CN(C)CCOC(=O)C(O)(c1ccccc1)C1CCCC1 (stereo not drawn) | inactive: 2.36%
4 | Cc1c(NP(C)(=O)Oc2ccc(C(C)C)cc2)c(=O)n(-c2ccccc2)n1C (stereo not drawn) | inactive: 2.87%
5 | O=[N+]([O-])c1cc([N+](=O)[O-])c(Nc2ccccn2)c([N+](=O)[O-])c1 | inactive: 1.69%
6 | CP(=O)(Nc1ccccn1)Oc1ccccc1 (stereo not drawn) | inactive: -1.78%
7 | COc1ccccc1OP(C)(=O)Nc1ccc(C)cc1C (stereo not drawn) | inactive: -0.91%
8 | CCc1ccc(OP(C)(=O)O)cc1 | inactive: 2.2%
9 | O=C1C(O)=C([N+](=O)[O-])C(=O)C(O)=C1[N+](=O)[O-] | active: 15.4%
10 | Cc1cc(C)cc(OP(C)(=O)Nc2cccc(C(F)(F)F)c2)c1 (stereo not drawn) | inactive: -2.06%
11 | COc1ccccc1OP(C)(=O)Nc1ccc(C)c(C)c1 (stereo not drawn) | inactive: 5.83%
12 | COc1ccc(OP(C)(=O)Nc2ccccc2Br)cc1 (stereo not drawn) | inactive: -1.9%
13 | CP(=O)(Nc1ccc(Cl)cc1Cl)Oc1ccccc1 (stereo not drawn) | inactive: 0.71%
14 | CCCCCCCCCCCCCCCC1C[N+](C)(C)CCOP(C)(=O)O1 (stereo not drawn) | inactive: -4.23%
15 | CP(=O)(OCCOc1ccccc1)OCCOc1ccccc1 | inactive: -3.71%
16 | Nc1ccc2c(ccc3cccnc32)n1.O=[N+]([O-])c1cc([N+](=O)[O-])c(O)c([N+](=O)[O-])c1 | inactive: -3.17%
17 | CCOC(=O)c1ccc(NP(C)(=O)Oc2ccc(Cl)cc2)cc1 (stereo not drawn) | inactive: -6.54%
18 | CP(=O)(OC12CC3CC(CC(C3)C1)C2)OC12CC3CC(CC(C3)C1)C2 | inactive: 1.77%
19 | CCN(CC)CC(O)COC(=O)C(O)(c1ccccc1)C1CCCCC1 (stereo not drawn) | inactive: -2.51%
20 | COc1ccc(OP(C)(=O)Nc2ccc(Br)cc2)cc1 (stereo not drawn) | inactive: 0.91%

Row | Structure (SMILES) | inhibition
21 | COc1ccccc1OP(C)(=O)Nc1c(C)n(C)n(-c2ccccc2)c1=O (stereo not drawn) | inactive: 1.64%
22 | O=C(OCCCN1CCCC1)C(O)(c1ccccc1)C1CCCCC1 (stereo not drawn) | inactive: 3.87%
23 | CP(=O)(Oc1ccccc1)N1CCOC1=O (stereo not drawn) | inactive: -0.21%
24 | CCc1ccc(OP(C)(=O)Nc2cccnc2)cc1 (stereo not drawn) | inactive: 1.8%
25 | COc1ccccc1OP(C)(=O)Nc1ccccc1Br (stereo not drawn) | inactive: 1.32%
26 | CC(C)(C)c1ccc(OP(C)(=O)O)cc1 | inactive: -5.79%
27 | CP(=O)(Nc1ccc(Cl)cc1)Oc1ccc(F)cc1 (stereo not drawn) | inactive: 9.78%
28 | CN(C)C(=O)c1c([N+](=O)[O-])cc([N+](=O)[O-])cc1[N+](=O)[O-] | inactive: 3.82%
29 | CP(=O)(Nc1ccc(SC(F)(F)F)cc1)Oc1ccc(F)cc1 (stereo not drawn) | inactive: -3.89%
30 | CCOP(C)(=S)SCC(=O)NC(C)(CC)C(=O)O (stereo not drawn) | inactive: 3.13%
31 | CCOP(=O)(CC)OCC | inactive: 3.38%
32 | CP(=O)(Nc1ccc2c(c1)OCCO2)Oc1ccccc1 (stereo not drawn) | inactive: 1.93%
33 | Cc1ccccc1NP(C)(=O)Nc1ccccc1C | inactive: -2.53%
34 | O=[N+]([O-])c1cc([N+](=O)[O-])c(C(F)(F)F)c([N+](=O)[O-])c1O | inactive: 5.23%
35 | COc1ccc(OP(C)(=O)Nc2cccc(Br)c2)cc1 (stereo not drawn) | inactive: 0.62%
36 | CN(C)CCOC(=O)C(O)(c1ccccc1)C1CCCCC1 (stereo not drawn) | inactive: 4.09%
37 | COc1ccc(NP(C)(=O)Oc2ccccc2OC)cc1 (stereo not drawn) | inactive: -0.38%
38 | O=[N+]([O-])c1ccc(OP2(=O)COCCO2)cc1 (stereo not drawn) | inactive: -3.77%
39 | Cc1cc(-c2cccc3ccccc23)c(C)cn1.O=[N+]([O-])c1cc([N+](=O)[O-])c(O)c([N+](=O)[O-])c1 | inactive: 0.79%
40 | O=[N+]([O-])c1cc([N+](=O)[O-])c(NCC2CCS(=O)(=O)C2)c([N+](=O)[O-])c1 (stereo not drawn) | inactive: -0.35%

Row | Structure (SMILES) | inhibition
41 | Cc1c(C(c2ccc3c(c2)OCO3)c2c(C)n(C)n(-c3ccccc3)c2=O)c(=O)n(-c2ccccc2)n1C.O=[N+]([O-])c1cc([N+](=O)[O-])c(O)c([N+](=O)[O-])c1 | inactive: 4.96%
42 | CCN(CC)CCCNc1ccccc1[N+](=O)[O-].O=[N+]([O-])c1cc([N+](=O)[O-])c(O)c([N+](=O)[O-])c1 | inactive: -17.5%
43 | CCOC(=O)c1ccc(NP(C)(=O)Oc2ccc(F)cc2)cc1 (stereo not drawn) | inactive: -0.7%
44 | COc1ccc(OP(C)(=O)Nc2ccc(SC(F)(F)F)cc2)cc1 (stereo not drawn) | inactive: 2.66%
45 | Cc1c([N+](=O)[O-])cc([N+](=O)[O-])c(Br)c1[N+](=O)[O-] | inactive: -2.33%
46 | CCN(CC)CCCOC(=O)C(O)(c1ccccc1)C1CCCCC1 (stereo not drawn) | inactive: -3.21%
47 | CP(=O)(Nc1ccccc1)Oc1ccc(F)cc1 (stereo not drawn) | inactive: -5.26%
48 | O=[N+]([O-])c1cc([N+](=O)[O-])c(OC2CCCCC2O)c([N+](=O)[O-])c1 (stereo not drawn) | inactive: -3.23%
49 | CCCCCOc1ccc(NP(C)(=O)Oc2ccc(Cl)cc2Cl)cc1 (stereo not drawn) | inactive: -2.21%
50 | O=[N+]([O-])c1cc([N+](=O)[O-])c(Nc2ccc(Cl)cc2)c([N+](=O)[O-])c1 | inactive: -12.3%
51 | CP(=O)(Nc1ccccc1F)Oc1ccccc1 (stereo not drawn) | inactive: 1.9%
52 | CC(C)c1ccc(OP(C)(=O)Nc2ccc(SC(F)(F)F)cc2)cc1 (stereo not drawn) | inactive: -5.83%
53 | O=C(OC1CN2CCC1CC2)c1ccc([N+](=O)[O-])cc1 (stereo not drawn) | inactive: -1.61%
54 | O=C(OCCN1CCN(CCOCc2ccccc2)CC1)C(O)(c1ccccc1)c1ccccc1 | inactive: -0.61%
55 | COc1ccc2c(c1O)-c1c(O)c(OC)cc3c1[C@H](C2)[N+](C)(C)CC3.O=[N+]([O-])c1cc([N+](=O)[O-])c([O-])c([N+](=O)[O-])c1[O-] | inactive: -1.74%
56 | COc1ccccc1OP(C)(=O)Nc1cccc(Br)c1 (stereo not drawn) | inactive: 2.54%
57 | CCOC(=O)c1ccc(NP(C)(=O)Oc2cc(C)cc(C)c2)cc1 (stereo not drawn) | inactive: -5.05%
58 | Cc1cc(C)cc(OP(C)(=O)Nc2ccc(C)cc2C)c1 (stereo not drawn) | inactive: -5.09%
